Only a part is listed here, and it is no random draw. Some results for these compounds are left out of this collection, so the calls shown say nothing about other tests. Active and inactive are the calls of the source.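 How the source made its calls: active means inhibition above 20%; inactive means inhibition below 20%.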
Test: clotrimazole potentiators killing Candida biofilms, primary screen, with clotrimazole, Alamar Blue (AID 834);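 further: preformed 24 hr biofilms exposed to compound for 48 hr; 0% = biofilm without compound and 100% = blank killed by clotrimazole plus chlorhexidine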
Settings: C. albicans biofilm + clotrimazole, at 6 µM, stronger effect = higher value

Which inhibition does the source give for O=C(OC1CN2CCC1CC2)C(CO)(c1ccccc1)c1ccccc1 (configuration not stated) here?
Its inhibition is inactive: 8.54%.

With CN(C)c1cccc(C(=O)NCC2(N(C)C)CCCCC2)c1 as the compound, how does the inhibition read?
The inhibition was inactive: 6.64%.

— PubChem BioAssay AID834 (PCMD, 2007)
